Sequences of proteins named here, by UniProt entry; tags and fusion partners are left off. A change or cut given only in a name is not applied to a line headed by its entry.
UniProt P35372, whole entry, looked up: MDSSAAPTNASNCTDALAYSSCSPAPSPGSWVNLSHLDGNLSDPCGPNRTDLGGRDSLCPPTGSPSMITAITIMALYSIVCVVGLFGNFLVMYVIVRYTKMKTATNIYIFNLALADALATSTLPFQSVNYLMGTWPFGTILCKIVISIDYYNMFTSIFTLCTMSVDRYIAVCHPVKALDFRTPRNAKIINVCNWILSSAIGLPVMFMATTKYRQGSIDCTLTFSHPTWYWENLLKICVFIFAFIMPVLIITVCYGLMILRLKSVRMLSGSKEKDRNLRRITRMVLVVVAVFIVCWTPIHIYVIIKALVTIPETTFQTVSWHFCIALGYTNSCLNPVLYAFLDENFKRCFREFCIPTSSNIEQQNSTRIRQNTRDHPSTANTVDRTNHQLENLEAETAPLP
UniProt P41146: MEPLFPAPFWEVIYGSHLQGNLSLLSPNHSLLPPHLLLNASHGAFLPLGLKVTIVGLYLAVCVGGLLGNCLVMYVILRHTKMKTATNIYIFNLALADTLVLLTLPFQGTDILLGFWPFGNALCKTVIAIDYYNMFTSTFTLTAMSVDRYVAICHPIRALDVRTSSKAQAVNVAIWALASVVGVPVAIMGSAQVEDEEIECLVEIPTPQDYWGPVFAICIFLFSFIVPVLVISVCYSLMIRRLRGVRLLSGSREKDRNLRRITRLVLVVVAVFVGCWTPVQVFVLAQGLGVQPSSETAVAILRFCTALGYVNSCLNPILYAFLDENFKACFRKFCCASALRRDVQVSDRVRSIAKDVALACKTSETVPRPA

According to patent US9120797B2, “Process for preparing spirocyclic cyclohexane compounds, compositions containing such compounds and method of using such compounds” (dated 2015):

How the values were obtained:
[1] = biological target: human μ-opiate receptor (Homo sapiens (Human), UniProt P35372); conditions: 1 μmole/l test substance
[2] = biological target: ORL1 receptor (Homo sapiens (Human), UniProt P41146); conditions: c=1 μM test substance
[3] = tested on: mice; assay: Tail flick test in mice; conditions: for Tail flick (mouse, i.v.) % inhibition (dose [mg/kg]): % of maximum possible antinociceptive effect
[4] = tested on: mice; assay: Phenylquinone-induced writhing test in mice

SMILES	μ % inhibition [1 μM] [1] [%]	Tail flick (mouse, i.v.) ED50 [3] [mg/kg]	further results
CC1Cc2c(n(C)c3ccccc23)C2(CCC(c3ccccc3)(N(C)C)CC2)O1 (stereo not drawn)	75	–	–
CN(C)C1(c2ccc(F)cc2)CCC2(CC1)OCCc1c2sc2ccccc12 (stereo not drawn)	76	–	–
CN(C)C1(c2ccccc2)CCC2(CC1)OCCc1c2sc2ccccc12 (stereo not drawn)	53	–	–
CC(=O)N1CCc2c([nH]c3ccc(C)cc23)C12CCC(c1ccccc1)(N(C)C)CC2 (stereo not drawn)	99	–	ORL1 % inhibition [1 μM] [2]: 58%
Cc1ccc2[nH]c3c(c2c1)CC(C)OC31CCC(c2ccccc2)(N(C)C)CC1 (stereo not drawn)	90	–	ORL1 % inhibition [1 μM] [2]: 56%; Tail flick (mouse, i.v.) % inhibition (dose [mg/kg]) ([3]; dose 1 mg/kg): 100% (1)
CC1Cc2c(n(-c3ccccc3)c3ccccc23)C2(CCC(c3ccccc3)(N(C)C)CC2)O1 (stereo not drawn)	43	–	–
CNC1(c2ccccc2)CCC2(CC1)OCCc1c2[nH]c2ccccc12 (stereo not drawn)	–	0.042	–
CN(C)C1(c2ccccc2)CCC2(CC1)NCCc1c2oc2ccccc12 (stereo not drawn)	86	–	ORL1 % inhibition [1 μM] [2]: 75%
CN(C)C1(c2cccc(F)c2)CCC2(CC1)OCCc1c2[nH]c2ccccc12 (stereo not drawn)	–	0.018	–
CN(C)C1(c2cccc(F)c2)CCC2(CC1)SCCc1c2[nH]c2ccccc12 (stereo not drawn)	100	–	ORL1 % inhibition [1 μM] [2]: 55%
COc1ccc2[nH]c3c(c2c1)CCOC31CCC(c2ccccc2)(N(C)C)CC1 (stereo not drawn)	–	0.02	Writhing (mouse, i.v.) ED50 [4]: 3.3 µg/kg
CN(C)C1(c2ccccc2)CCC2(CC1)NC(CO)Cc1c2[nH]c2ccccc12 (stereo not drawn)	–	–	ORL1 % inhibition [1 μM] [2]: 99%
Cc1ccc2[nH]c3c(c2c1)CCOC31CCC(c2ccccc2)(N(C)C)CC1 (stereo not drawn)	–	0.039	–
CN(C)C1(c2ccccc2)CCC2(CC1)OC1CCCCC1c1c2[nH]c2ccccc12 (stereo not drawn)	96	–	ORL1 % inhibition [1 μM] [2]: 91%
CN(C)C1(c2ccccc2)CCC2(CC1)OCCc1c2oc2ccccc12 (stereo not drawn)	80	–	Writhing (mouse, i.v.) % inhibition (dose [mg/kg]) ([4]; dose 10 mg/kg): 89% (10)
CNC1(c2ccccc2)CCC2(CC1)OCCc1c2[nH]c2ccc(F)cc12 (stereo not drawn)	–	0.22	–
CN(C)C1(c2ccc(F)cc2)CCC2(CC1)SCCc1c2[nH]c2ccccc12 (stereo not drawn)	90	–	–
CN(C)C1(c2ccccc2)CCC2(CC1)OCCc1c2[nH]c2ccc(O)cc12 (stereo not drawn)	–	0.013	–
CN(C)C1(c2ccc(F)cc2)CCC2(CC1)OCCc1c2[nH]c2ccccc12 (stereo not drawn)	–	–	Tail flick (mouse, i.v.) % inhibition (dose [mg/kg]) ([3]; dose 0.1 mg/kg): 100% (0.1)
CN(C)C1(c2ccccc2)CCC2(CC1)OCCc1c2[nH]c2ccccc12 (single isomer, unassigned)	–	0.0035	Tail flick ED50 (i.p.) ([3]; mouse, i.p.): 0.0182 (i.p.) mg/kg
CC(=O)N1CCc2c([nH]c3cc(F)ccc23)C12CCC(c1ccccc1)(N(C)C)CC2 (stereo not drawn)	–	–	Tail flick (mouse, i.v.) % inhibition (dose [mg/kg]) ([3]; dose 0.1 mg/kg): 100% (0.1)
